Values quoted from earlier work as cited in PMC6412969.

Test system: μOR
Conditions: other results from our laboratory

## biphalin
  IC50: 1.4 nM
